Counter-ions that a name gives are not always drawn.
Experiments:
MOR = MOR (Mus musculus, UniProt P42866); assay: [35S]-GTPγS functional assay, MOR; assay type: biochemical; design: expressed in transfected cells; membrane homogenate; conditions: read-out: [35S]-GTPγS functional activity MOR Emax (%)
DOR = target: T1, DOR (Homo sapiens, UniProt P41143); assay: [35S]-GTPγS functional assay, DOR; assay type: biochemical; conditions: percent of SNC80 full agonist control
T1 construct: expressed in transfected cells; membrane homogenate

KOR [1] = target: T2, KOR (Mus musculus, UniProt P33534); assay: [35S]-GTPγS functional assay, KOR; assay type: biochemical; conditions: percent of U50,488 full agonist control
T2 construct: expressed in transfected cells; membrane homogenate

KOR [2] = target: T2, KOR; assay: Competitive radioligand binding assay, KOR; conditions: ratio of Ki values

Structure (SMILES): O=C(/C=C/c1ccco1)N[C@H]1CC[C@@]2(O)[C@H]3Cc4ccc(O)c5c4[C@@]2(CCN3CC2CC2)[C@H]1O5 [Compound 22, 17-Cyclopropylmethyl-3,14β-dihydroxy-4,5α-epoxy-6α-[(2E)-3′-(furan-2″-yl)prop-2-enamido]morphinan Hydrochloride]
- Emax (MOR): 12.7 ± 1.05%
- Emax (DOR): 61 ± 2.21%
- Emax (KOR [1]): 89.6 ± 7.25%
- selectivity ratio δ/κ (KOR [2]): 8

Structure (SMILES): CN(C(=O)CCc1ccco1)[C@H]1CC[C@@]2(O)[C@H]3Cc4ccc(O)c5c4[C@@]2(CCN3CC2CC2)[C@H]1O5 [Compound 13, 17-Cyclopropylmethyl-3,14β-dihydroxy-4,5α-epoxy-6α-[3′-(furan-2″-yl)-N-methylpropanamido]morphinan Hydrochloride]
- selectivity ratio δ/κ (KOR [2]): 3
- selectivity ratio μ/κ (KOR [2]): 1

Structure (SMILES): Cl.O=C(CCc1ccco1)N[C@H]1CC[C@@]2(O)[C@H]3Cc4ccc(O)c5c4[C@@]2(CCN3CC2CC2)[C@H]1O5 [Compound 14, 17-Cyclopropylmethyl-3,14β-dihydroxy-4,5α-epoxy-6α-[3′-(furan-2″-yl)propanamido]morphinan Hydrochloride]
- Emax (DOR): 75.2 ± 2.46%
- Emax (KOR [1]): 80.8 ± 3.02%

Structure (SMILES): CN(C(=O)CCc1ccoc1)[C@@H]1CC[C@@]2(O)[C@H]3Cc4ccc(O)c5c4[C@@]2(CCN3CC2CC2)[C@H]1O5 [Compound 7, 17-Cyclopropylmethyl-3,14β-dihydroxy-4,5α-epoxy-6β-[3′-(furan-3″-yl)-N-methylpropanamido]morphinan Hydrochloride]
- selectivity ratio δ/κ (KOR [2]): 30
- selectivity ratio μ/κ (KOR [2]): 2

Structure (SMILES): O=C(/C=C/c1ccco1)N[C@@H]1CC[C@@]2(O)[C@H]3Cc4ccc(O)c5c4[C@@]2(CCN3CC2CC2)[C@H]1O5 [Compound 24, 17-Cyclopropylmethyl-3,14β-dihydroxy-4,5α-epoxy-6β-[(2E)-3′-(furan-2″-yl)prop-2-enamido]morphinan Hydrochloride]
- Emax (MOR): 7.33 ± 0.65%
- Emax (DOR): 42.8 ± 4.01%
- Emax (KOR [1]): 98.53 ± 0.6%

Structure (SMILES): Cl.O=C(CCc1ccco1)N[C@@H]1CC[C@@]2(O)[C@H]3Cc4ccc(O)c5c4[C@@]2(CCN3CC2CC2)[C@H]1O5 [Compound 16, 17-Cyclopropylmethyl-3,14β-dihydroxy-4,5α-epoxy-6β-[3′-(furan-2″-yl)propanamido]morphinan Hydrochloride]
- Emax (DOR): 40.9 ± 2.33%
- Emax (KOR [1]): 93.7 ± 1.01%

Structure (SMILES): CN(C(=O)CCc1ccco1)[C@@H]1CC[C@@]2(O)[C@H]3Cc4ccc(O)c5c4[C@@]2(CCN3CC2CC2)[C@H]1O5 [Compound 15, 17-Cyclopropylmethyl-3,14β-dihydroxy-4,5α-epoxy-6β-[3′-(furan-2″-yl)-N-methylpropanamido]morphinan Hydrochloride]
- selectivity ratio δ/κ (KOR [2]): 23
- selectivity ratio μ/κ (KOR [2]): 2
